Sequences of proteins named here, by UniProt entry; tags and fusion partners are left off. A change or cut given only in a name is not applied to a line headed by its entry.
UniProt P28843: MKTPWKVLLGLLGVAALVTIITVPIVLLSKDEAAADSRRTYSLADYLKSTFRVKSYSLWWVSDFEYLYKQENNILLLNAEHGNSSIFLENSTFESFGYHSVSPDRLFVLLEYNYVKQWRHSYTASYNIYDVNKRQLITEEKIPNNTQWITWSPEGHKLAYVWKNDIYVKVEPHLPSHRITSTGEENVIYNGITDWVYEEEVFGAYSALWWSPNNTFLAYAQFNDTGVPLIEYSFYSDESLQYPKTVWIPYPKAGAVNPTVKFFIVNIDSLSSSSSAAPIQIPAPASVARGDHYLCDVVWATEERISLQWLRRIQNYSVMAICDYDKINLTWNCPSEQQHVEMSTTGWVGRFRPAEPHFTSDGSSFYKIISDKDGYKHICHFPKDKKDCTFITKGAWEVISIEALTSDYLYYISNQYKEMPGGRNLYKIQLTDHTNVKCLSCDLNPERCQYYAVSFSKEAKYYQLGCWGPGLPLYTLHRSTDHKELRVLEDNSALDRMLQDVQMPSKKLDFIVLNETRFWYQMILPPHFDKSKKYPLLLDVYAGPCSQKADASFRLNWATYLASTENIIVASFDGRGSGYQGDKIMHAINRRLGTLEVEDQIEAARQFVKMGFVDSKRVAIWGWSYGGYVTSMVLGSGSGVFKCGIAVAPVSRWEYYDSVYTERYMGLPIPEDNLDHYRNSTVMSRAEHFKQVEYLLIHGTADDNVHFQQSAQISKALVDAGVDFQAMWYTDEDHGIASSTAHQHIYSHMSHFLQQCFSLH

According to ChEMBL document CHEMBL1140747, “Discovery of potent and selective dipeptidyl peptidase IV inhibitors derived from beta-aminoamides bearing subsituted triazolopiperazines” (J Med Chem, 2008):

Molecular target: Dipeptidyl peptidase 4 (Mus musculus, UniProt P28843)

`Cl.N[C@@H](CC(=O)N1CCn2c(nnc2C(F)(F)F)C1)Cc1cc(F)c(F)cc1F` gave a pIC50 of 7.16.

pIC50: −log10 of the molar value.
